Data on 2 compounds can be found in patent US20230135894A1, “MK2 DEGRADERS AND USES THEREOF” (Kymera Therapeutics, Inc., priority 2021, published 2023).

Amino acid sequences for entries named in this document (tags omitted).
UniProt P49137, whole entry: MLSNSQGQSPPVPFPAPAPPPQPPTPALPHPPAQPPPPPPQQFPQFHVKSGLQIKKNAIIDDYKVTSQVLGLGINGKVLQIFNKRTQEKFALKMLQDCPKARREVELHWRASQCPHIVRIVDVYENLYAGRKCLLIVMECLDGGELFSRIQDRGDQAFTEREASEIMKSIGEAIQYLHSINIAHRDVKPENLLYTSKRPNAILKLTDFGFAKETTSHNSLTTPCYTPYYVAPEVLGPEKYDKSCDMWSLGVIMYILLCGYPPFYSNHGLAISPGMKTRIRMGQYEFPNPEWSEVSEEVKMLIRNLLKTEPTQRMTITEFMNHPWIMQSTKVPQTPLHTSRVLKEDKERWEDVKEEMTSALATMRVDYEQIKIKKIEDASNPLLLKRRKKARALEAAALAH

In assay [1] the target is T1, MK2 (Homo sapiens, UniProt P49137). Put plainly: MK2 degradation in human THP-1 monocytic cells (MSD, 24 h). The following applies: for MK2 MSD THP-1 24 h Dmax %: THP-1 cells; for DC50: read-out: MK2 MSD THP-1 degradation 24 h GMean External Abs DC50, THP-1 cells. The method, then: MK2 Degradation in Human THP-1 Monoctyic Cells
(§1) The human monocytic cancer cell line THP-1 (ATCC (TIB-202)) was cultured in 96 well plates (Corning 3894) at a density of 200,000 cells per well in 100 microlitres in complete growth medium of RPMI 1640 (Gibco) pus 10% fetal Bovine Serum (Corning) and Penicillin/Streptomycin (SolarBio) at 37 degrees Celsius and 5% CO2. A serial dilution of each compound (usually 3 to 5 fold serial dilutions up to 10 separate concentration points) was added to individual wells from a 10 millimolar stock solution, at a background concentration of 0.1% DMSO and the cells were shaken at 600 rpm for 5 minutes and then were cultured for 24 hours at 37 degrees Celsius and 5% carbon dioxide. Separately, a custom MSD (MesoScaleDiscovery, L15XA-3) plate for detection of human MK2 was prepared by coating the plate with the commercial AbCam ab247272 reagent in 1×Phosphate Buffered Saline at 40 microlitres per well and incubated at 4 degrees Celsius overnight. The next day, the MSD plate was washed with 150 microlitres of Tween buffered saline, blocked with MSD blocking buffer (3% Blocker A from MSD), and washed again.
(§2) The cell plate was centrifuged at 3,200 g for 5 minutes and the supernatant was discarded and 100 microlitres of RIPA lysis buffer (containing proteinase inhibitors, Boston BioProducts BP-115D) was added and the plate was sealed and shaken on ice for 20 minutes. The plate was centrifuged as before and 70 microlitres of sample lysate was added to the MSD plates and they were shaken at room temperature for 1 hour at 600 rpm. The MSD plate was washed 3 times as before and then the primary MK2 detection antibody (Santa Cruz sc-100393) was added at a final concentration of 1 microgram per ml at 25 microlitres per well and shaken at room temperature for 1 hour at 600 rpm.
(§3) After 3 more washes, the secondary detection antibody (SULFO-Tag anti rabbit antibody R32AB-5) was added at a final concentration of 1 microgram per ml at 25 microlitres per well and shaken at room temperature for 1 hour at 600 rpm. After 3 more washes, the 1×MSD (diluted from 5× concentrate with water) reading buffer was added at 150 microlitres per well and read on the MSD instrument Meso Sector S 600.
(§4) The inhibition/degradation curves and DC50 values were plotted and calculated using XL Fit (version v5.3.1.3) using equation 201 and a 4 parameter logistic model whereby fit=(A+((B−A)/(1+((x/C)D))) where A is the Bottom and B is the Top and C is the IC50 and D is the slope and high C is the signal for the DMSO treated cells and Low C is the signal is the signal for the lysis buffer.

The target in assay [2] is T1, MK2. The assay can be described thus: MK2 degradation in human SW1353 cells (MSD, 24 h). Particulars: for DC50: read-out: MK2 MSD SW1353 degradation 24 h GMean External Abs DC50. The protocol:
MK2 Degradation in Human SW1353 Cells
as §1, with “chondrocyte” for “monocytic”, “SW-1353 (ATCC(HTB-94))” for “THP-1 (ATCC (TIB-202))”, “Leibovitz's L-15 Medium” for “RPMI 1640”, “Celsius.” for “Celsius and 5% CO2.”, “Celsius.” for “Celsius and 5% carbon dioxide.”
as §2, §3, §4

Consider `Cn1c(=O)n(C2CCC(=O)NC2=O)c2ccc(N3CC(CN4CCN(c5ccc(-c6nccc(-c7cc8c([nH]7)C7(CCCC7)CNC8=O)n6)c(F)c5)CC4)C3)cc21` (centres unmarked), for which, in assay [1], the “MK2 MSD THP-1 24 h Dmax %” value is recorded as “A (A (>75%))” and the DC50 was less than 1 nM. Moreover, in assay [2], the “MK2 MSD SW 1353 24 h Dmax %” value is reported as “A (A (>75%))” and the DC50 is less than 1 nM.
In the case of `C[C@@H]1Cc2[nH]c(-c3ccnc(-c4ccc(N5CCC(CN6CCN(c7cccc8c7n(C)c(=O)n8C7CCC(=O)NC7=O)CC6)CC5)cc4)c3)cc2C(=O)N1` (some centres unmarked), in assay [1], the “MK2 MSD THP-1 24 h Dmax %” value is reported as “A (A (>75%))” and the DC50 was in the range of 1 to 10 nM. Also, in assay [2], the “MK2 MSD SW 1353 24 h Dmax %” value is “A (A (>75%))” and the 50% degradation concentration (DC50) is 1 to 10 nM.
